Results taken from US20260240847A1, “COMPOUNDS WITH ANTI-TUMOR ACTIVITY AGAINST CANCER CELLS BEARING TYROSINE KINASE INHIBITOR RESISTANT EGFR MUTATIONS” (BOARD OF REGENTS, THE UNIVERSITY OF TEXAS SYSTEM, priority 2019, published 2026).

Chains of the proteins cited; added tags and fusions are not shown. A line that says so, or that is headed by a name, gives the form on record, which may keep a tag or linker. Residues count along the entry.
UniProt P00533, with tags, fused parts or gaps INS770NPG: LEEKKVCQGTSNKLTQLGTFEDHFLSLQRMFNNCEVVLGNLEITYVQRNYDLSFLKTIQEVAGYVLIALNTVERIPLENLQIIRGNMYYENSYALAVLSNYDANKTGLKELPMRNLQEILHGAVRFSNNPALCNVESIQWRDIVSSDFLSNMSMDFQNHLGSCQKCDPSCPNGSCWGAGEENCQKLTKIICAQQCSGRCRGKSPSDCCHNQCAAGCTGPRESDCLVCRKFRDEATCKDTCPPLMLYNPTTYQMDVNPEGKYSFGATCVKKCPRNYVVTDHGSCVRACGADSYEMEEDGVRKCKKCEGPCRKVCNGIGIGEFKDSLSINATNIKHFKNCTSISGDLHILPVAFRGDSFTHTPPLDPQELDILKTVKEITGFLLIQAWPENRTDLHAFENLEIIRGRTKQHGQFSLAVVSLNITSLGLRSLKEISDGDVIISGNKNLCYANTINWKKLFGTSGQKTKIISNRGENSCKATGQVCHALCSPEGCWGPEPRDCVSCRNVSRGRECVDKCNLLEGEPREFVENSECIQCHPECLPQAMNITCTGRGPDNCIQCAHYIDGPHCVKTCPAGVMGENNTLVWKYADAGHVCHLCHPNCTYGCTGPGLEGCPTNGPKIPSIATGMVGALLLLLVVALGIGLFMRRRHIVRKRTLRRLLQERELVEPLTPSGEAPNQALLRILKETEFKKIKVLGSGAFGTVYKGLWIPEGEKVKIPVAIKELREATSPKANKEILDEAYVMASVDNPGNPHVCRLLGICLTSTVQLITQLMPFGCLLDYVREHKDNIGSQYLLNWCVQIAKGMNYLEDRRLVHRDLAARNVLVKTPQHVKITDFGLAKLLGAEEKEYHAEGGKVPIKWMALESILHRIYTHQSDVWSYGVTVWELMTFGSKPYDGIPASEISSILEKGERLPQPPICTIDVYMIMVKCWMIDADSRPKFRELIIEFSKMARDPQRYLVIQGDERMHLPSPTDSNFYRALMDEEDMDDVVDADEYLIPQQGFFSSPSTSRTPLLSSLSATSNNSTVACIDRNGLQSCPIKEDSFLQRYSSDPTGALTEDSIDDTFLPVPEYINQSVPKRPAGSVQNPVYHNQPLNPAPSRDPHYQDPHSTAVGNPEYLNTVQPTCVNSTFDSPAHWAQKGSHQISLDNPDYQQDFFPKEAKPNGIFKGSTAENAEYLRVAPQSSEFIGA
UniProt P00533, with tags, fused parts or gaps INS773NPH: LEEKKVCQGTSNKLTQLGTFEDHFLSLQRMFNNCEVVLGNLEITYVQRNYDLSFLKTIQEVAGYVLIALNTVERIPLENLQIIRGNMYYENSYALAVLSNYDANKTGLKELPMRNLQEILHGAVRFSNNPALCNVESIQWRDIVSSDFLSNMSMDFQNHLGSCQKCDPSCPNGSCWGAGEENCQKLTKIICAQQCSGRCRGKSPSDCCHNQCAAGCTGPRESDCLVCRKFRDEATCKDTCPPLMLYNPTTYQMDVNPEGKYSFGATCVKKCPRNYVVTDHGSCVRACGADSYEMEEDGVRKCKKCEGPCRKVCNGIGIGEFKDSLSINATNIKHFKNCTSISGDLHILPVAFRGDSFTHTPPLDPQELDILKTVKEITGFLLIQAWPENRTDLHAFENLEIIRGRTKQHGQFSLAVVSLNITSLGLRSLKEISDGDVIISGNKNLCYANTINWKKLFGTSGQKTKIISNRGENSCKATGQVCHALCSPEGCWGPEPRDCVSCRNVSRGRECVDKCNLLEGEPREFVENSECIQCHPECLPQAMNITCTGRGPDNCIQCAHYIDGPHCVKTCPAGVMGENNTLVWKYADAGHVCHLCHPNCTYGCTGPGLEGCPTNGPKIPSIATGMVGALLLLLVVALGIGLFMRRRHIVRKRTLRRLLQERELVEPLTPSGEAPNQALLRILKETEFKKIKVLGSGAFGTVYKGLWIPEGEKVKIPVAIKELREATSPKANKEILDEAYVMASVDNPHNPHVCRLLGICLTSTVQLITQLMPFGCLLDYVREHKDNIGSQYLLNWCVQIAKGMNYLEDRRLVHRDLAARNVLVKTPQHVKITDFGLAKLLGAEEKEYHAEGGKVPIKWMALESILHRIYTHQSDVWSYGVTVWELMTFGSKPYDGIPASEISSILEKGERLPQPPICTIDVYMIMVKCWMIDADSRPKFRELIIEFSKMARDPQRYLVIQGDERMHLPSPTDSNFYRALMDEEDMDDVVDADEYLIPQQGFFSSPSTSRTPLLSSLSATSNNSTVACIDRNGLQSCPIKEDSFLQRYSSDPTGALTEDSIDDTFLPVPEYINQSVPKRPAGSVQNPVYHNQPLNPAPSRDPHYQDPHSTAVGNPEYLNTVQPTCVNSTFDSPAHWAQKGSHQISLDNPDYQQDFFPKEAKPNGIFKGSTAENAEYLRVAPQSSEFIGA
UniProt P00533, 25-1210 T790M/L858R: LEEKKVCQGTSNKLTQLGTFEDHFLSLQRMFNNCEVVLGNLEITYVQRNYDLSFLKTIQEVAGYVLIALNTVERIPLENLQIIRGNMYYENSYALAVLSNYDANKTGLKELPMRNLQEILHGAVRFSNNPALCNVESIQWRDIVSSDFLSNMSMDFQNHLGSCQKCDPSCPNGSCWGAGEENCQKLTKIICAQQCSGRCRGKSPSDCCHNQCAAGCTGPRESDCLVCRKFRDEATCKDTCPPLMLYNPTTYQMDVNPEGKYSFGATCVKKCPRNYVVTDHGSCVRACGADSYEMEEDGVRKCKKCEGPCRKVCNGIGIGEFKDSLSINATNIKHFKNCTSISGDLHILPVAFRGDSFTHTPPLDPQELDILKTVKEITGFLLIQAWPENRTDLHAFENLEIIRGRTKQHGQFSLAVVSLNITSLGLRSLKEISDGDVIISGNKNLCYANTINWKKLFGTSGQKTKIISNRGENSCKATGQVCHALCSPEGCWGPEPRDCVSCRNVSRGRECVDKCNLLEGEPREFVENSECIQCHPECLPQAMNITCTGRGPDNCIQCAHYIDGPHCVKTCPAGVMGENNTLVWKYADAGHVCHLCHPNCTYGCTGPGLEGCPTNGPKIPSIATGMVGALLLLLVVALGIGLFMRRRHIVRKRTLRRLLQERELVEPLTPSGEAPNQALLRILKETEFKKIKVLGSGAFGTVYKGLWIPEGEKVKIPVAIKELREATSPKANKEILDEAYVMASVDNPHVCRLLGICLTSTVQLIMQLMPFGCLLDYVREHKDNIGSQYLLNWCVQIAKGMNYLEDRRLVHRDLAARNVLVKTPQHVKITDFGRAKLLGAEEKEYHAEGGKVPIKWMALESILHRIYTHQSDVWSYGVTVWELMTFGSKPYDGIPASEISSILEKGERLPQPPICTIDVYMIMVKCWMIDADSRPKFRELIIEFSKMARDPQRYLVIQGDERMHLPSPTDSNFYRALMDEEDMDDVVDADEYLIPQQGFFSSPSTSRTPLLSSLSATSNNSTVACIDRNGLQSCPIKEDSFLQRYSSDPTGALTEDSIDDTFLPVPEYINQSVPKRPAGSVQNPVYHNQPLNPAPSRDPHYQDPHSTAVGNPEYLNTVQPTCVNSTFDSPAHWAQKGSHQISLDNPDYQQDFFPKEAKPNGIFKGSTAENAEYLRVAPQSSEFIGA
UniProt P00533, 25-1210 G719A/L861Q: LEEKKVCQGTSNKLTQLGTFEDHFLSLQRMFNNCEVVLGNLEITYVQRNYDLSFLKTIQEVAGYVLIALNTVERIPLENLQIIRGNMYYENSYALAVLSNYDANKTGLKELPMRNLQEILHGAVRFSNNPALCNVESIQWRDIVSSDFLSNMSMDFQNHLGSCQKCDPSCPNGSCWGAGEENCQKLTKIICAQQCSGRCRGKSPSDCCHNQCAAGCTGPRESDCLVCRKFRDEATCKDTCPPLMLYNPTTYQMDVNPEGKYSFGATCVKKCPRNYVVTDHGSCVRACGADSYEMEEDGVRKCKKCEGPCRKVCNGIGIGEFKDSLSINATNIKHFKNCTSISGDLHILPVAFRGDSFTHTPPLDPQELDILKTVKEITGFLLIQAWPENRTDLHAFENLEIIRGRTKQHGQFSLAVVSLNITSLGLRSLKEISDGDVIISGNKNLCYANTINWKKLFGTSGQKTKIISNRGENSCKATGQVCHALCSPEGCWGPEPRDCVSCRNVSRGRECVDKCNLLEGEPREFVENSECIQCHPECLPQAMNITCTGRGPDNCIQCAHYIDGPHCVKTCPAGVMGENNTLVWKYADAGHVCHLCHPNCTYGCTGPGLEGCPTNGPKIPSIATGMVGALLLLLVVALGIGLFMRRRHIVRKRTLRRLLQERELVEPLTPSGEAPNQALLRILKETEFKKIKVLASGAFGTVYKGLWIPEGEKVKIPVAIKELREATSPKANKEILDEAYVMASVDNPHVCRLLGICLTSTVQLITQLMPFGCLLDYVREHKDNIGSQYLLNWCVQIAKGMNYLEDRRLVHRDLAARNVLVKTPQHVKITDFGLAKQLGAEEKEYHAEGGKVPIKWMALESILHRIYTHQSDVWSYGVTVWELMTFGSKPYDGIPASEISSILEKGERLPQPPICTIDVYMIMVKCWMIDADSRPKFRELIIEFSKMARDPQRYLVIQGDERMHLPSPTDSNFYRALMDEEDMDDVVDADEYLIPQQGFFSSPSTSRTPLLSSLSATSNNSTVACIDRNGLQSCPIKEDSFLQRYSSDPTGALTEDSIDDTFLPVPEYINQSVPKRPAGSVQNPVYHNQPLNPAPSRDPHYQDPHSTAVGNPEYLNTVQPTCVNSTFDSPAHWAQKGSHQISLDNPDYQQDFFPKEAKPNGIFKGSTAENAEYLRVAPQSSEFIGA
UniProt P00533, with tags, fused parts or gaps L718Q/DEL746-750: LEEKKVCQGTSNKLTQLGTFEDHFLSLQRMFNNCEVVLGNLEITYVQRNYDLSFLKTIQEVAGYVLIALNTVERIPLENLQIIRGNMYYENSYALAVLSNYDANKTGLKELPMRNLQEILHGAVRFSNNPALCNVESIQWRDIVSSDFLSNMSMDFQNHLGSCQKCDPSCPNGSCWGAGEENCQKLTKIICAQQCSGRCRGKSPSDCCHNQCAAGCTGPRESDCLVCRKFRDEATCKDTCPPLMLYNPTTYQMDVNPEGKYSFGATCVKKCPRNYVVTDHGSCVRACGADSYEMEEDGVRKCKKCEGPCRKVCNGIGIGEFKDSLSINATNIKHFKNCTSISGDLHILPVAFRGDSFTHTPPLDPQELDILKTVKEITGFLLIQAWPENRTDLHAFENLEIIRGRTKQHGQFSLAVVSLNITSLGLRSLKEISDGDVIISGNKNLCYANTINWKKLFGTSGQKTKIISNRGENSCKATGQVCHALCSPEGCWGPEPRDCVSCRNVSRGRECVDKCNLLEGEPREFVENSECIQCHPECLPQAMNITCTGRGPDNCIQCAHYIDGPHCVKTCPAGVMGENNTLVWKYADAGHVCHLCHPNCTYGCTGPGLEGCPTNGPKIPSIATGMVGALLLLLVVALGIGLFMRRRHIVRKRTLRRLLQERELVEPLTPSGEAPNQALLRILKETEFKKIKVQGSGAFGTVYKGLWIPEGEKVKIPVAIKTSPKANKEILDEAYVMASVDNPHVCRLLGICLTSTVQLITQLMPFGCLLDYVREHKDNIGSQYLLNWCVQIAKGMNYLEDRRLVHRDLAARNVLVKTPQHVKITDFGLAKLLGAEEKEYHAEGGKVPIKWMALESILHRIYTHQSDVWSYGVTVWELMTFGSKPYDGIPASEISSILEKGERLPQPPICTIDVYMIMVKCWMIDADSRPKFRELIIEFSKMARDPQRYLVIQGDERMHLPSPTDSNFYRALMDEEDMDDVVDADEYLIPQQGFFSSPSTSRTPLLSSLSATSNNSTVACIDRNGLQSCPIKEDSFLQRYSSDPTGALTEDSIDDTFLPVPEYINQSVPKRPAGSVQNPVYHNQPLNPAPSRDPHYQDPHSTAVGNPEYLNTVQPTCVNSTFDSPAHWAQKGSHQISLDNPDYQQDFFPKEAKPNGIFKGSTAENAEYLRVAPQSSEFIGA

Experiments:
Experiment in all cases: Ba/F3 cell viability, Cell Titer Glo
EGFR D770insNPG = EGFR D770insNPG (Homo sapiens, UniProt P00533, INS770NPG); details: read-out: IC50 Values; Ba/F3 cells expressing EGFR D770insNPG, 72 hours
EGFR H773insNPH = EGFR H773insNPH (Homo sapiens, UniProt P00533, INS773NPH); details: read-out: IC50 Values; Ba/F3 cells expressing EGFR H773insNPH, 72 hours
EGFR L858R/T790M = EGFR L858R/T790M (Homo sapiens, UniProt P00533, L858R/T790M); details: read-out: IC50 Values; Ba/F3 cells expressing EGFR L858R/T790M, 72 hours
EGFR G719A L861Q = EGFR G719A L861Q (Homo sapiens, UniProt P00533, G719A/L861Q); details: read-out: IC50 Values; Ba/F3 cells expressing EGFR G719A L861Q, 72 hours
EGFR Ex19del L718Q = EGFR Ex19del L718Q (Homo sapiens, UniProt P00533, DEL746-750/L718Q); details: read-out: IC50 Values; Ba/F3 cells expressing EGFR Ex19del L718Q, 72 hours
EGFR Ex19del G724S = EGFR Ex19del G724S (Homo sapiens, UniProt P00533, DEL746-750/G724S); details: read-out: IC50 Values; Ba/F3 cells expressing EGFR Ex19del G724S, 72 hours
EGFR L718V = EGFR L718V (Homo sapiens, UniProt P00533, L718V); details: read-out: IC50 Values; Ba/F3 cells expressing EGFR L718V, 72 hours
EGFR L718Q T790M = EGFR L718Q T790M (Homo sapiens, UniProt P00533, L718Q/T790M); details: read-out: IC50 Values; Ba/F3 cells expressing EGFR L718Q T790M, 72 hours
EGFR E709K = EGFR E709K (Homo sapiens, UniProt P00533, E709K); details: read-out: IC50 Values; Ba/F3 cells expressing EGFR E709K, 72 hours
EGFR A767insASV = EGFR A767insASV (Homo sapiens, UniProt P00533, DUP767-769); details: read-out: IC50 Values; Ba/F3 cells expressing EGFR A767insASV, 72 hours
EGFR Ex19del L718V = EGFR Ex19del L718V (Homo sapiens, UniProt P00533, DEL746-750/L718V); details: read-out: IC50 Values; Ba/F3 cells expressing EGFR Ex19del L718V, 72 hours
EGFR L858R T790M L718V = EGFR L858R T790M L718V (Homo sapiens, UniProt P00533, L718V/L858R/T790M); details: read-out: IC50 Values; Ba/F3 cells expressing EGFR L858R T790M L718V, 72 hours
EGFR L858R/V834L = EGFR L858R/V834L (Homo sapiens, UniProt P00533, L858R/V834L); details: read-out: IC50 Values; Ba/F3 cells expressing EGFR L858R/V834L, 72 hours
EGFR E709K L858R = EGFR E709K L858R (Homo sapiens, UniProt P00533, E709K/L858R); details: read-out: IC50 Values; Ba/F3 cells expressing EGFR E709K L858R, 72 hours
EGFR S768dupSVD = EGFR S768dupSVD (Homo sapiens, UniProt P00533, DUP768-770); details: read-out: IC50 Values; Ba/F3 cells expressing EGFR S768dupSVD, 72 hours
EGFR Ex19delT790M = EGFR Ex19delT790M (Homo sapiens, UniProt P00533, DEL746-750/T790M); details: read-out: IC50 Values; Ba/F3 cells expressing EGFR Ex19delT790M, 72 hours
EGFR G724S = EGFR G724S (Homo sapiens, UniProt P00533, G724S); details: read-out: IC50 Values; Ba/F3 cells expressing EGFR G724S, 72 hours
EGFR L858R L718Q = EGFR L858R L718Q (Homo sapiens, UniProt P00533, L718Q/L858R); details: read-out: IC50 Values; Ba/F3 cells expressing EGFR L858R L718Q, 72 hours
EGFR L858R T790M L792H = EGFR L858R T790M L792H (Homo sapiens, UniProt P00533, L792H/L858R/T790M); details: read-out: IC50 Values; Ba/F3 cells expressing EGFR L858R T790M L792H, 72 hours
EGFR G719A = EGFR G719A (Homo sapiens, UniProt P00533, G719A); details: read-out: IC50 Values; Ba/F3 cells expressing EGFR G719A, 72 hours

Compound `Cc1cc(C(=O)Nc2nc3cccc(Cl)c3n2[C@@H]2CCCCN(C(=O)/C=C/CN(C)C)C2)ccn1` has an IC50 (EGFR D770insNPG) of 686 nM, an IC50 (EGFR H773insNPH) of 550 nM and an IC50 (EGFR L858R/T790M) of 25.4 nM. It also gave an IC50 (EGFR G719A L861Q) of 68.9 nM, an IC50 (EGFR Ex19del L718Q) of 72 nM and an IC50 (EGFR Ex19del G724S) of 3020 nM. It also gave an IC50 (EGFR L718V) of 1020 nM, an IC50 (EGFR L718Q T790M) of 411 nM and an IC50 (EGFR E709K) of 388 nM. The IC50 (EGFR A767insASV) was 828 nM, the IC50 (EGFR Ex19del L718V) was 86.6 nM and the IC50 (EGFR L858R T790M L718V) was 336 nM. The IC50 (EGFR L858R/V834L) was 14.6 nM, the IC50 (EGFR E709K L858R) was 25.8 nM and the IC50 (EGFR S768dupSVD) was 520 nM. The IC50 (EGFR Ex19delT790M) was 16.4 nM, the IC50 (EGFR G724S) was 127 nM and the IC50 (EGFR L858R L718Q) was 808 nM. The IC50 (EGFR L858R T790M L792H) was 5570 nM and the IC50 (EGFR G719A) was 87.8 nM.
